The source of these data is ChEMBL document CHEMBL2417365, “Design, synthesis, and in vitro hMAO-B inhibitory evaluation of some 1-methyl-3,5-diphenyl-4,5-dihydro-1H-pyrazoles” (Bioorg Med Chem Lett, 2013).

Amino acid sequences for entries named in this document (tags omitted).
UniProt P27338, whole entry: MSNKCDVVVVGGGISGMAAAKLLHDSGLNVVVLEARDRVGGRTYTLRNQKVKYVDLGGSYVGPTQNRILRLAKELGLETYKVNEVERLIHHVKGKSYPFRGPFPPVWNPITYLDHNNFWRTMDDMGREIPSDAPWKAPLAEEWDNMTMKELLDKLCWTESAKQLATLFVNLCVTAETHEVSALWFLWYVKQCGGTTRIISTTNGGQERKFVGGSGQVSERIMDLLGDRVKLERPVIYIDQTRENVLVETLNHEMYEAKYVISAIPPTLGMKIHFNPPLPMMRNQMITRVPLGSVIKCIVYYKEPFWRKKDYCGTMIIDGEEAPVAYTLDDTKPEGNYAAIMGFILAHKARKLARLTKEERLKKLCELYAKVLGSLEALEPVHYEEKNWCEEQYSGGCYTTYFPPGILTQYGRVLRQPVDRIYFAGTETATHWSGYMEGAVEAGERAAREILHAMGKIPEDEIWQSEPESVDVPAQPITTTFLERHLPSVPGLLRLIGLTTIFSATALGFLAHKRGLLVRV

Assay [1] deals with Amine oxidase [flavin-containing] B (Homo sapiens, UniProt P27338). In words: biochemical. Type of assay: cell-based, BTI-TN-5B1-4.
The species named for another assay is Homo sapiens. Put plainly: Selectivity index, ratio of IC50 for human MAO-A to IC50 for human MAO-B.

In assay [1], `CN1N=C(c2ccc(O)cc2O)CC1c1ccc(F)cc1` (configuration not stated) showed a half-maximal inhibitory concentration (IC50) of 0.49 µM. Moreover, in the assay filed under Homo sapiens, the Ratio IC50 was determined as 1.6.

The term IC50 denotes the concentration that inhibits the measured activity by half. Lower therefore signals greater potency.
